Test: Pharmacokinetics following a single rectal administration to NZW rabbits (Example 11)
Type: in vivo, New Zealand White KBL Rabbit
From the text: Following dosing, blood samples and rectal mucosa was obtained at indicated time points.

[1] = 0 h, single rectal administration, Treatment B 7.5, NZW rabbits
[2] = 24 h, single rectal administration, Treatment B 7.5, NZW rabbits

SMILES: O=C(Nc1ccc([N+](=O)[O-])cc1Cl)c1cc(Cl)ccc1O [Niclosamide, 5-chloro-N-(2-chloro-4-nitrophenyl)-2-hydroxybenzamide]
- Niclosamide Plasma Concentrations, Subject 666 [1]: BLQ
- Niclosamide Plasma Concentrations, Subject 667 [1]: BLQ
- Niclosamide Plasma Concentrations, Subject 668 [1]: BLQ
- Niclosamide Plasma Concentrations, Subject 669 [1]: BLQ
- Niclosamide Plasma Concentrations, Subject 670 [1]: BLQ
- Niclosamide Plasma Concentrations, Subject 670 (1 h, single rectal administration, Treatment B 7.5, NZW rabbits): BLQ
- Niclosamide Plasma Concentrations, Subject 666 (4 h, single rectal administration, Treatment B 7.5, NZW rabbits): BLQ
- Niclosamide Plasma Concentrations, Subject 668 (8 h, single rectal administration, Treatment B 7.5, NZW rabbits): BLQ
- Niclosamide Plasma Concentrations, Subject 666 [2]: BLQ
- Niclosamide Plasma Concentrations, Subject 668 [2]: BLQ
- concentration at 1 h (male, New Zealand White KBL, rabbit, plasma, other: rectal, 7.5 mg, Niclosamide Plasma Concentrations, Mean, 1 h, single rectal administration, Treatment B 7.5, NZW rabbits): 3.93 ng/mL
- concentration at 1 h (male, New Zealand White KBL, rabbit, plasma, other: rectal, 7.5 mg, Niclosamide Plasma Concentrations, Subject 666, 1 h, single rectal administration, Treatment B 7.5, NZW rabbits): 5.79 ng/mL
- concentration at 1 h (male, New Zealand White KBL, rabbit, plasma, other: rectal, 7.5 mg, Niclosamide Plasma Concentrations, Subject 667, 1 h, single rectal administration, Treatment B 7.5, NZW rabbits): 2.98 ng/mL
- concentration at 4 h (male, New Zealand White KBL, rabbit, plasma, other: rectal, 7.5 mg, Niclosamide Plasma Concentrations, Subject 667, 4 h, single rectal administration, Treatment B 7.5, NZW rabbits): 21.7 ng/mL
- concentration at 1 h (male, New Zealand White KBL, rabbit, plasma, other: rectal, 7.5 mg, Niclosamide Plasma Concentrations, Subject 668, 1 h, single rectal administration, Treatment B 7.5, NZW rabbits): 2.81 ng/mL
- concentration at 1 h (male, New Zealand White KBL, rabbit, plasma, other: rectal, 7.5 mg, Niclosamide Plasma Concentrations, Subject 669, 1 h, single rectal administration, Treatment B 7.5, NZW rabbits): 4.13 ng/mL
- concentration at 1 h (male, New Zealand White KBL, rabbit, rectal mucosa, other: rectal, 7.5 mg, Niclosamide Rectal Concentration, Mean, rectal mucosa after 1 hour, single rectal administration (7.5 mg), rabbits): 22.6 ng/mL
- concentration at 1 h (male, New Zealand White KBL, rabbit, rectal mucosa, other: rectal, 7.5 mg, Niclosamide Rectal Concentration, Subject 669, rectal mucosa after 1 hour, single rectal administration, rabbits): 12.3 ng/mL
- concentration at 1 h (male, New Zealand White KBL, rabbit, rectal mucosa, other: rectal, 7.5 mg, Niclosamide Rectal Concentration, Subject 670, rectal mucosa after 1 hour, single rectal administration, rabbits): 32.8 ng/mL

From US10849867B2, “Methods and compositions for treating conditions associated with an abnormal inflammatory response” (First Wave Bio, Inc., priority 2015, dated 2020)
